Test results: article PMC10803261, “Structural basis of the human NAIP/NLRC4 inflammasome assembly and pathogen sensing” (Nature Structural & Molecular Biology, 2024)
Several values for one entry are separate records, joined by “and”; a condition that tells them apart may be missing. Identical values can stand only once.

Biological target: the molecule itself
Experiment: cryo-EM structure

B1: full-length human NLRC4 (huNLRC4), N-terminal tags cleaved (natural protein, UniProt Q9NPP4 1-1024, looked up)
chain: MNFIKDNSRALIQRMGMTVIKQITDDLFVWNVLNREEVNIICCEKVEQDAARGIIHMILKKGSESCNLFLKSLKEWNYPLFQDLNGQSLFHQTSEGDLDDLAQDLKDLYHTPSFLNFYPLGEDIDIIFNLKSTFTEPVLWRKDQHHHRVEQLTLNGLLQALQSPCIIEGESGKGKSTLLQRIAMLWGSGKCKALTKFKFVFFLRLSRAQGGLFETLCDQLLDIPGTIRKQTFMAMLLKLRQRVLFLLDGYNEFKPQNCPEIEALIKENHRFKNMVIVTTTTECLRHIRQFGALTAEVGDMTEDSAQALIREVLIKELAEGLLLQIQKSRCLRNLMKTPLFVVITCAIQMGESEFHSHTQTTLFHTFYDLLIQKNKHKHKGVAASDFIRSLDHCGDLALEGVFSHKFDFELQDVSSVNEDVLLTTGLLCKYTAQRFKPKYKFFHKSFQEYTAGRRLSSLLTSHEPEEVTKGNGYLQKMVSISDITSTYSSLLRYTCGSSVEATRAVMKHLAAVYQHGCLLGLSIAKRPLWRQESLQSVKNTTEQEILKAININSFVECGIHLYQESTSKSALSQEFEAFFQGKSLYINSGNIPDYLFDFFEHLPNCASALDFIKLDFYGGAMASWEKAAEDTGGIHMEEAPETYIPSRAVSLFFNWKQEFRTLEVTLRDFSKLNKQDIRYLGKIFSSATSLRLQIKRCAGVAGSLSLVLSTCKNIYSLMVEASPLTIEDERHITSVTNLKTLSIHDLQNQRLPGGLTDSLGNLKNLTKLIMDNIKMNEEDAIKLAEGLKNLKKMCLFHLTHLSDIGEGMDYIVKSLSSEPCDLEEIQLVSCCLSANAVKILAQNLHNLVKLSILDLSENYLEKDGNEALHELIDRMNVLEQLTALMLPWGCDVQGSLSSLLKHLEEVPQLVKLGLKNWRLTDTEIRILGAFFGKNPLKNFQQLNLAGNRVSSDGWLAFMGVFENLKQLVFFDFSTKEFLPDPALVRKLSQVLSKLTFLQEARLVGWQFDDDDLSVITGAFKLVTA
stoichiometry N: 11 and 12
